ChEMBL document CHEMBL4765448, “Multiple biological active 4-aminopyrazoles containing trifluoromethyl and their 4-nitroso-precursors: Synthesis and evaluation” (Eur J Med Chem, 2020)

Assay: Antioxidant activity assessed as trolox equivalent of ABTS radical scavenging activity measured after 1 hr by UV-vis spectrophotometric method
Type: functional
Method in brief: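 ABTS cation-radical decolorization was read spectrophotometrically as the fall in absorbance after 1 h. Trolox was the reference. TEAC was taken as the ratio of concentration-response slopes, test/Trolox, and IC50 was also derived. Data are mean ± SEM, n = 3.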

O=C1O[C@H]([C@@H](O)CO)C(O)=C1O [ASCORBIC ACID]
Activity: 0.98 equiv
